# scFv variants of Ab-91 (heavy chain) against a SARS-CoV-2 spike peptide

The measurements come from Engelhart et al. 2022 (doi:10.1038/s41597-022-01779-4) through the FLAb antibody collection.

All variants were tested on one target, the spike HR2 peptide PDVDLGDISGINAS (SARS-CoV-2).

Parent: Ab-91, a human scFv built as VL, a (GGGGS)3 linker, VH. Only the CDRs of the heavy chain vary.
VL: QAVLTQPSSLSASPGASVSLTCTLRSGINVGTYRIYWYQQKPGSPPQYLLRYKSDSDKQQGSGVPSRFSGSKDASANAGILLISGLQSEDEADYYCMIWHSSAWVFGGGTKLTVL
VH: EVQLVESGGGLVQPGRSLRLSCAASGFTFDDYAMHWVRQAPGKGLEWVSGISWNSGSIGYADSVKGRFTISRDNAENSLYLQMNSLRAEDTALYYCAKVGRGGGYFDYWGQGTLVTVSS

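In library AAYL51, one, two or three CDR residues were substituted; doubles and triples were drawn at random. The assay is AlphaSeq: two haploid yeast populations carry antibody and antigen on their surface. Mating (16 h, 30 °C) was followed by selection of diploids and sequencing of their barcodes. Each replicate has its own calibration line, from reference interactions of the BCL2 family. There are three technical replicates.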

The whole VH of each variant is written out. Every variant below is changed at D107 of the VH (sequential numbering). Values are log10 of the apparent Kd in nM; lower means stronger binding. "nd" means that the variant was in the library but no mating with the target was seen in that replicate; the authors take this as a sign of poor binding, and no number exists. Empty control strains, which show no peptide, gave a signal in 21% of pairings with library AAYL51; the median was 4.54 and 95% of these signals were weaker than 3.26. No background was subtracted.

VH,log10 Kd (nM) by replicate
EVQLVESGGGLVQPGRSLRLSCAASGFTFDDYAMYWVRQAPGKGLEWVSGISWNSGSCGYADSVKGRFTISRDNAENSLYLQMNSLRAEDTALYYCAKVGRGGGYFSYWGQGTLVTVSS,4.08 nd 5.32
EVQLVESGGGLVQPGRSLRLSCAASGFTFDDYAMHWVRQAPGKGLEWVSGISWNSGSIGYADHVKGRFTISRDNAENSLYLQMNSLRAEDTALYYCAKVGRGGYYFLYWGQGTLVTVSS,5.54 4.38 4.39
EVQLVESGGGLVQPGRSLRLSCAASGFTQDDYAMHWVRQAPGKGLEWVSGISWNSGSIGYADSVKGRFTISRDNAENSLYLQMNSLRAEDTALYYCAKVGRGGGYFHYWGQGTLVTVSS,nd nd nd
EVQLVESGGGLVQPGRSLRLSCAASGFTFDDYAMHWVRQAPGKGLEWVSGISENSGSIGYADSVKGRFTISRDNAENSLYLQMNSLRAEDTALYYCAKCGRGGGYFGYWGQGTLVTVSS,5.97 nd nd
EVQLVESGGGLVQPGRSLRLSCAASGFTFDDYAMHWVRQAPGKGLEWVSGIAWNSGSIGYADSVKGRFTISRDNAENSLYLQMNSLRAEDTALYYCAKVARGGGYFVYWGQGTLVTVSS,4.49 nd nd
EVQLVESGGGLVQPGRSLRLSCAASGLTFDDYAMHWVRQAPGKGLEWVSGVSWNSGSIGYADSVKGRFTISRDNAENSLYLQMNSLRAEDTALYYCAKVGRGGGYFRYWGQGTLVTVSS,5.21 4.13 nd
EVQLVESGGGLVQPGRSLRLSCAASGFTFDDYAMHWVRQAPGKGLEWVSGISWNSGLIGYADSVKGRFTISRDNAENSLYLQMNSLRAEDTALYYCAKTGRGGGYFPYWGQGTLVTVSS,5.66 nd nd
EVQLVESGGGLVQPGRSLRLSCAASGFTFHDYQMHWVRQAPGKGLEWVSGISWNSGSIGYADSVKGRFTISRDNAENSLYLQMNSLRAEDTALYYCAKVGRGGGYFQYWGQGTLVTVSS,nd nd nd
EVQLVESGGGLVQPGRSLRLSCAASGFTFDDYAMHWVRQAPGKGLEWVSGISWNSGSIGYYDSVKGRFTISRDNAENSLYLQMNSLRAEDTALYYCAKVFRGGGYFIYWGQGTLVTVSS,nd nd nd
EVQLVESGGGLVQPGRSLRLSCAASGFCFDDYAMHWVRQAPGKGLEWVSGISWNSGSIGYADSVKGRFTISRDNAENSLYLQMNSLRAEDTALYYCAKVGRIGGYFLYWGQGTLVTVSS,nd nd 3.90
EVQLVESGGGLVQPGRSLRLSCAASGCTNDDYAMHWVRQAPGKGLEWVSGISWNSGSIGYADSVKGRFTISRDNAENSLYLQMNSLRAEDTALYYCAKVGRGGGYFQYWGQGTLVTVSS,nd nd nd
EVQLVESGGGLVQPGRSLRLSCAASGFTFDDYAMHWVRQAPGKGLEWVSGISWNSGSWGEADSVKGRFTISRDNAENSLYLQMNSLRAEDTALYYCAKVGRGGGYFIYWGQGTLVTVSS,nd nd nd
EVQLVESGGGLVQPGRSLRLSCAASGFTFDDYAMHWVRQAPGKGLEWVSGISWNSGSIGYADSVEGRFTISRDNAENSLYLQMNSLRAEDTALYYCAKVGRGGGYFGYWGQGTLVTVSS,4.10 4.44 5.38
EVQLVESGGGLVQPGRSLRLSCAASGFTFDDYAMPWVRQAPGKGLEWVSGISWNSGSIGYADSVKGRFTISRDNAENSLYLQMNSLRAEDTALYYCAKVGRGGGYFWYWGQGTLVTVSS,nd 5.48 4.45
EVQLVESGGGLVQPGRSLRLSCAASGFTFDDYARHWVRQAPGKGLEWVSGISWNSGSIGYADRVKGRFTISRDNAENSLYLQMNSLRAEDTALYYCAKVGRGGGYFCYWGQGTLVTVSS,6.20 nd nd
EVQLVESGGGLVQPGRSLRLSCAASGFTFDDYVMHWVRQAPGKGLEWVSGISWNSGSIGYADSVKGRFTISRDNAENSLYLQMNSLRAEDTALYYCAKVGRGGGYYMYWGQGTLVTVSS,4.48 nd 3.79

For reference, 2 entries of the list once more:

VH	log10 Kd (nM) by replicate
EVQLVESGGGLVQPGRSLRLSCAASGFTFDDYAMHWVRQAPGKGLEWVSGISWNSGSWGEADSVKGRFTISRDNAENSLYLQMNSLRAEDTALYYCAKVGRGGGYFIYWGQGTLVTVSS	nd nd nd
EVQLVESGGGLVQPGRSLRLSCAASGFTFDDYAMYWVRQAPGKGLEWVSGISWNSGSCGYADSVKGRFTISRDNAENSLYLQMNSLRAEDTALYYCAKVGRGGGYFSYWGQGTLVTVSS	4.08 nd 5.32